Patent US8487091B2, “Substituted cyclopentanes having prostaglandin activity” (Allergan, Inc., priority 2008, dated 2013)

By UniProt entry, the sequences of proteins in these tests, tags left out.
UniProt P43116, whole entry: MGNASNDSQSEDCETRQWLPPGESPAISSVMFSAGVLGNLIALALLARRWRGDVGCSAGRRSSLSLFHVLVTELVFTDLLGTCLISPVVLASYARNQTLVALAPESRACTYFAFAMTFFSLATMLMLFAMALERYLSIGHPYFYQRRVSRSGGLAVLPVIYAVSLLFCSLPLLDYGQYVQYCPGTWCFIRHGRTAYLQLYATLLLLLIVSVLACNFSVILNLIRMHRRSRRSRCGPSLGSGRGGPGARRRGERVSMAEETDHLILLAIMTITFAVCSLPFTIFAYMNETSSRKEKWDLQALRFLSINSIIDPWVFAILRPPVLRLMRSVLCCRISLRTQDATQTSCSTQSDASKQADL

What was measured:
EP2 [1] = target: T1, EP2 (Homo sapiens, UniProt P43116); assay: EP2 cAMP functional assay; conditions: read-out: EP2 cAMP EC50
Description: (§1) United States Patent Application Publication No. 20070129552, describes the methods used to obtain the in vitro data in Table 1 below. The part of that reference which describes the method is incorporated by reference herein.

EP2 [2] = target: T1, EP2; assay: EP2 binding assay; conditions: read-out: EP2 Binding Ki
Description: as §1

EC50 (EP2 [1]): 2.5 nM
Ki (EP2 [2]): 32 nM
Structure (SMILES): CCC1(C(O)C/C=C/[C@@H]2[C@@H](CCCc3ccc(C(=O)O)s3)CC[C@H]2C#N)CCC1 (some centres unmarked)
